# Ab-14 light chain CDR variants: yeast mating affinities

Reference: Li et al. 2023, doi:10.1038/s41467-023-39022-2. File: FLAb, binding data.

All variants were tested on one target, the spike HR2 peptide PDVDLGDISGINAS (SARS-CoV-2).

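Phage display of a naive human antibody library on the peptide gave the parent. This is the validation round: designs drawn from the data on random variants, tested in the same kind of assay. Their group label is 14L_Ctrl (Ctrl: baseline library sampled from a position-specific scoring matrix, with some repeated check sequences). AlphaSeq pools MATa yeast showing the antibodies with MATalpha yeast showing the peptide. Binding brings cells together so that they mate, and sequencing counts the barcode pairs among the diploids. The ratio of observed to expected reads was calibrated, replicate by replicate, on BCL2-family standards whose Kd was known from biolayer interferometry. Mating was done six times.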

The variants keep the heavy chain, the linker and the frameworks of Ab-14 (scFv order VH, a 15-residue (Gly4Ser)3 linker, VL).
VH: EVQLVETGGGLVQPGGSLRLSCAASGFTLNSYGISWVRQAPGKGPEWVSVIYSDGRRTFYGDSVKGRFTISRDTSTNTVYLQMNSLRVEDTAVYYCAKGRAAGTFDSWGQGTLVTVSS
VL: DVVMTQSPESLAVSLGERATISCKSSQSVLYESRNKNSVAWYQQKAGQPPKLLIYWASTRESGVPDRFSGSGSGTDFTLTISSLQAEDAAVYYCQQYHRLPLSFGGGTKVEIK

Substitutions are numbered in sequence along the VL above, starting at 1 (not Kabat). The read-out is the apparent dissociation constant on a log10 scale (nM): the lower, the stronger. A mean of the replicates is given; it leaves out those without a signal. "ND" marks a missing value. The strain was present, yet no cells mated with the target were sequenced in that replicate, which points to weak or no binding. A sequence measured in both rounds can read differently, since the two assays cover different ranges.

The variant L30E R34T showed 1.34, 1.17, 2.82, 1.95, 1.80, 1.78 (mean 1.81; controls 1 of 18).
The variant S25V S26W R34F W56E showed 1.30, 1.36, 1.67, 1.22, 1.49, 1.44 (mean 1.41; controls 0 of 18).
The variant V29D Y31D W56M showed ND, 1.90, ND, ND, ND, ND (controls 0 of 18).
The variant Y31K R34T S58A R99H showed 1.56, 1.14, 2.40, 2.06, 1.27, 2.30 (mean 1.79; controls 0 of 18).
The variant R34T W56N showed 0.14, -0.21, -0.26, -0.07, 0.01, 0.03 (mean -0.06; controls 1 of 18).
The variant S25L L30E Y31T E32G L102I showed 1.00, 1.03, 0.55, 0.48, 0.53, 0.78 (mean 0.73; controls 2 of 18).
The variant S28L Y31D K36N W56A H98A showed 1.05, 0.91, 0.84, 0.73, 0.75, 0.83 (mean 0.85; controls 2 of 18).
The variant S25W Y31D E32N W56N Y97E H98G showed ND, ND, ND, 3.12, ND, ND (controls 0 of 18).
The variant S28E L30S W56D showed 0.58, 0.48, 0.50, 0.35, 0.50, 0.64 (mean 0.51; controls 0 of 18).
The variant S25Y S26F S28P S58L showed ND, ND, ND, ND, 2.93, ND (controls 0 of 18).
The variant S33N W56Q showed 0.66, 0.57, 1.04, 0.84, 1.49, 1.23 (mean 0.97; controls 0 of 18).
The variant E32D R34A showed 1.54, 0.87, 1.25, 1.38, 1.12, 0.97 (mean 1.19; controls 2 of 18).
The variant S28G K36V W56D S58E showed 0.18, 0.34, 0.40, 0.19, 0.28, 0.31 (mean 0.28; controls 1 of 18).
The variant Y31T R34N showed 0.15, 0.16, 0.54, 0.48, 0.14, 0.79 (mean 0.38; controls 1 of 18).
The variant V39I P101H showed ND, ND, ND, ND, ND, ND (controls 0 of 18).
The variant V29R Y97F showed ND, ND, ND, ND, ND, ND (controls 1 of 18).
The variant Y31D E32G S33T R34E showed 0.40, 1.06, 0.19, 0.80, 0.77, 1.40 (mean 0.77; controls 0 of 18).
The variant S28P S62R showed ND, ND, ND, ND, 1.89, ND (controls 0 of 18).
The variant S25L V29L H98S showed 0.28, 0.29, 0.18, 0.05, 0.19, 0.77 (mean 0.29; controls 1 of 18).
The variant S25I W56K E61M P101E showed 0.33, 0.38, 0.51, 0.74, 0.80, 1.37 (mean 0.69; controls 0 of 18).
The variant S26M W56T E61T showed ND, 1.91, ND, ND, ND, ND (controls 0 of 18).
The variant S25V S103K showed 1.17, 0.76, 0.59, 1.06, 0.97, 1.20 (mean 0.96; controls 1 of 18).
The variant W56F R99H showed 1.12, 1.62, 1.47, 1.45, 1.32, 1.34 (mean 1.39; controls 1 of 18).
The variant S25M Y31A N35T W56K showed 0.25, 0.20, 0.23, 0.26, 0.35, 0.50 (mean 0.30; controls 1 of 18).
The variant N37S W56A A57D S62N H98V showed 0.92, 1.80, 1.86, 1.17, 1.21, 1.37 (mean 1.39; controls 0 of 18).
The variant W56F S103A showed 2.18, ND, ND, ND, ND, ND (controls 0 of 18).
The variant S25F V29Y Y31I R34Q S38P L102C showed 1.38, 1.25, 1.22, 1.79, 1.35, 1.55 (mean 1.42; controls 2 of 18).
The variant Y31F R34D S58F showed ND, ND, ND, ND, ND, ND (controls 1 of 18).
The variant S26G S103R showed ND, 1.27, ND, ND, ND, ND (controls 0 of 18).
The variant T59W E61C Y97I showed ND, ND, ND, ND, ND, ND (controls 0 of 18).
The variant S25I L100A L102I showed 1.86, 1.16, 1.57, 2.19, ND, ND (mean 1.70; controls 0 of 18).
The variant S25W W56G S62F L100H showed 2.78, 4.05, 3.07, ND, ND, ND (mean 3.30; controls 1 of 18).
The variant W56N E61V showed 0.72, 0.61, 0.46, 0.72, 0.85, 0.63 (mean 0.66; controls 0 of 18).
The variant S25V R34Q S62D showed 0.74, 1.29, 0.65, 0.47, 1.07, 0.71 (mean 0.82; controls 0 of 18).
The variant L30E W56H S62H showed 1.11, 1.70, 0.90, 0.72, 1.27, 0.77 (mean 1.08; controls 0 of 18).
The variant S26P V29T K36M showed 2.41, 1.34, 1.03, 1.47, 1.59, 1.58 (mean 1.57; controls 2 of 18).
The variant E32I S33G E61P showed ND, ND, ND, ND, ND, ND (controls 0 of 18).
The variant S62P Q96V showed ND, ND, ND, 1.82, ND, ND (controls 0 of 18).
The variant S25I S28M R34E R60H showed ND, ND, ND, 2.57, ND, 2.24 (mean 2.41; controls 0 of 18).
The variant S25I Q27P L30V S33E K36S R60Q showed ND, ND, ND, 2.11, ND, ND (controls 1 of 18).
The variant S28A N37S showed ND, ND, ND, ND, ND, 3.10 (controls 0 of 18).
The variant L30R Y31N showed 1.32, 1.11, 1.35, 0.61, 1.12, 0.65 (mean 1.03; controls 0 of 18).
The variant S25F L30M W56D A57G showed -0.46, -0.56, -0.53, -0.58, -0.51, -0.35 (mean -0.50; controls 1 of 18).
The variant E32I S33E W56A showed ND, ND, ND, 2.09, ND, ND (controls 0 of 18).
The variant V29K W56N T59M showed 0.16, 0.10, 0.33, 0.03, 0.11, 0.19 (mean 0.15; controls 0 of 18).
The variant K24F Q27I W56T E61A S103L showed ND, ND, 1.59, ND, ND, ND (controls 0 of 18).
The variant Q27N W56H Q95F showed 3.33, 1.53, 1.08, 0.49, 0.10, 1.58 (mean 1.35; controls 0 of 18).

Extract of 7 entries:

Variant S26P V29T K36M showed 2.41, 1.34, 1.03, 1.47, 1.59, 1.58 (mean 1.57; controls 2 of 18).
Variant S25I Q27P L30V S33E K36S R60Q showed ND, ND, ND, 2.11, ND, ND (controls 1 of 18).
Variant S25M Y31A N35T W56K showed 0.25, 0.20, 0.23, 0.26, 0.35, 0.50 (mean 0.30; controls 1 of 18).
Variant E32D R34A showed 1.54, 0.87, 1.25, 1.38, 1.12, 0.97 (mean 1.19; controls 2 of 18).
Variant S25V R34Q S62D showed 0.74, 1.29, 0.65, 0.47, 1.07, 0.71 (mean 0.82; controls 0 of 18).
Variant N37S W56A A57D S62N H98V showed 0.92, 1.80, 1.86, 1.17, 1.21, 1.37 (mean 1.39; controls 0 of 18).
Variant S25L L30E Y31T E32G L102I showed 1.00, 1.03, 0.55, 0.48, 0.53, 0.78 (mean 0.73; controls 2 of 18).

Nonspecific signal, from three strains lacking the peptide, appeared in 4% of pairings of all light chain designs, centred on 2.64 (5% of these signals below 1.59); values are not corrected for it. Also given: how often the same scFv was detected with the empty control strains. In the paper, a design with two or fewer of six values counts as a poor binder.